Values of other authors, collected in patent US20200176101A1, “METHODS AND MEDICAL USES RELATING TO THE TREATMENT OF HYPOGLYCAEMIA” (Zealand Pharma A/S, priority 2017, published 2020).
Where “and” joins values, the source holds several entries; their conditions need not be identical. Equal entries are not always repeated.

In the case of insulin aspart, the “tmax (time from dose to maximum serum concentration)” value (mean, SC insulin, one row per patient 1-8) is listed as 67.9 min and 48.5 min and 46.5 min and 68.5 min and 55.4 min and 57.6 min and 57.3 min and 40.8 min, the “CIF, I (apparent insulin clearance)” value (mean, one row per patient 1-8) is listed as 17.4 mL/min/kg and 17.3 mL/min/kg and 24.6 mL/min/kg and 23.7 mL/min/kg and 26.8 mL/min/kg and 18.9 mL/min/kg and 18.5 mL/min/kg and 14.8 mL/min/kg and the “Ib (steady state insulin concentration)” value (range of means, one row per patient 1-8, type 1 diabetes) is listed as 7.8-9.4 mU/l and 5.2-8.2 mU/l and 3.0-8.5 mU/l and 16.8-22.6 mU/l and 4.7-9.1 mU/l and 6.6-7.8 mU/l and 10.0-11.2 mU/l and 10.3-13.4 mU/l.
